Values of other authors, collected in patent US8569482B2, “Nanoparticulate probe for in vivo monitoring of tissue oxygenation” (priority 2003, dated 2013).

Tested on: gastrocnemius muscle tissue of C3H mice
Settings: mouse, in vivo; cited from earlier work

| Substance | stability in tissue |
| --- | --- |
| Lithium naphthalocyanine [LiNc] | only a few days |
| Lithium phthalocyanine [LiPc] | about 3 weeks |
